Laboratory results published in patent publication US12653894B2, “Degradation of FAK or FAK and ALK by conjugation of FAK and ALK inhibitors with E3 ligase ligands and methods of use” (DANA-FARBER CANCER INSTITUTE, INC., priority 2018, dated 2026).

The chains behind the UniProt entries cited, without tags or fusion partners. A line that says so, or that is headed by a name, gives the form on record, which may keep a tag or linker.
UniProt Q9UM73, with tags, fused parts or gaps: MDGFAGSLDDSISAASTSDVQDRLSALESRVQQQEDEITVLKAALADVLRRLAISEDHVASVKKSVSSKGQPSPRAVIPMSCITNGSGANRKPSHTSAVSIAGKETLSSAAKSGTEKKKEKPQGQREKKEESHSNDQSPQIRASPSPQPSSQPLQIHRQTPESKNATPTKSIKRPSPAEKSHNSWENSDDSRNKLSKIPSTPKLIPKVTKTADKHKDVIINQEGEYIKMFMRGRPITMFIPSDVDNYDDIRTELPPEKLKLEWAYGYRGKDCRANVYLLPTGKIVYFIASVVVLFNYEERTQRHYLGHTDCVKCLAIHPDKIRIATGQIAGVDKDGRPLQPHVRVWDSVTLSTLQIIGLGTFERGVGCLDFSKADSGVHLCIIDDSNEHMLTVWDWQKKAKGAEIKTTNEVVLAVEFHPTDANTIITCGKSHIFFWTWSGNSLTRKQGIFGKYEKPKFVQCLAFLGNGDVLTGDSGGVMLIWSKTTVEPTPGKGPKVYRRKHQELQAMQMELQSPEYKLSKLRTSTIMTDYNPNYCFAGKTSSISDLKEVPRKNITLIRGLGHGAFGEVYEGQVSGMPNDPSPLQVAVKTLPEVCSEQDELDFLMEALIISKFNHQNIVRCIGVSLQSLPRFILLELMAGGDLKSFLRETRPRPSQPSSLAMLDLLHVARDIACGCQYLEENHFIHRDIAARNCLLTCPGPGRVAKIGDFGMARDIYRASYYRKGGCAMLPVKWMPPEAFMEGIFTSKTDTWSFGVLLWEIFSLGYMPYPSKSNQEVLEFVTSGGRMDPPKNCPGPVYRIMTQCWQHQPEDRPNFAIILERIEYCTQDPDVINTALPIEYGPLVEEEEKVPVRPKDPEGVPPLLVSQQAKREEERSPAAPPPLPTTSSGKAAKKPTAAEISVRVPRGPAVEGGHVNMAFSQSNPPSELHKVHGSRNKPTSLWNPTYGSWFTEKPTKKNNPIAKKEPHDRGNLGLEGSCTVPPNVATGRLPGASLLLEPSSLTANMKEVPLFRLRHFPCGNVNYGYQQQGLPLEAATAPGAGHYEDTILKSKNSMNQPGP

Biological target: ALK (Homo sapiens, UniProt Q9UM73)
Assay: ALK degradation by immunoblot in H3122 cells
Assay type: cell-based
Parameters: endogenous in cells; host or cells: H3122; the other entry of the earlier key: EML4 (Q9HC35, Echinoderm microtubule-associated protein-like 4)
Settings: 10 nM to 1000 nM, 16 hours (compound 10) or 24 hours (compounds 1, 9)

CNC(=O)c1ccccc1Nc1cc(Nc2ccc(N3CCN(CCCCCCNC(=O)COc4cccc5c4C(=O)N(C4CCC(=O)NC4=O)C5=O)CC3)cc2OC)ncc1C(F)(F)F (stereo not shown) [Compound 1, 2-((2-((4-(4-(6-(2-((2-(2,6-dioxopiperidin-3-yl)-1,3-dioxoisoindolin-4-yl)oxy)acetamido)hexyl)piperazin-1-yl)-2-methoxyphenyl)amino)-5-(trifluoromethyl)pyridin-4-yl)amino)-N-methylbenzamide]
Degradation of ALK protein in H3122 cells (in words): do not show degradation of ALK
